This note sets out measurements from patent US20240043563A1.

One assay has as its target MASP-2-CCS-Flag (human) (UniProt O00187). Description: SPR, Biacore T200, antibody captured on Protein A chip, MASP-2-CCS-Flag as analyte.
For assay [1], the target named is human MASP-2 of human serum (human) (UniProt O00187). Description: cell-based or functional assay.

Usually Kd stands for the free concentration of one partner at which half of the binding sites on the other are occupied at equilibrium, for simple one-to-one binding. A low value points to tighter binding. What is called koff is a measure of how fast the partners let go of each other. One may read the kon as a measure of how fast the partners come together. High values mean faster complex formation, low ones slower complex formation.

As for Narsoplimab (antibody), in the assay with MASP-2-CCS-Flag (human), the Kd was 8.83 nM, the koff came out at 0.017 s⁻¹ and the kon turned out to be 1.92e+06 M⁻¹ s⁻¹. In assay [1], this substance yielded a C4 cleavage IC50 (4% human serum) of 201 pM; an IC50 of inhibition of MASP-2-catalyzed C4 cleavage (4% human serum, C4b ELISA) of 287 pM; an IC50 of inhibition of MASP-2-catalyzed C4 cleavage in 90% human serum of 8.23 nM; an IC50 of inhibition of MASP-2-mediated C3b production (4% C1q-removed human serum) of 1.74 nM.
